Assays:
[1] = molecular target: Mu-type opioid receptor (Rattus norvegicus) (UniProt P33535); assay: Agonist activity at rat MOR expressed in CHO cell membranes after 1 hr by [35S]GTPgammaS binding based liquid scintillation counting analysis relative to control
[2] = organism: Homo sapiens; assay: Selectivity ratio of Ki for human MOR expressed in CHO cell membranes to Ki for human KOR expressed in CHO cell membranes

By UniProt entry, the sequences of proteins in these tests, tags left out.
UniProt P33535, whole entry: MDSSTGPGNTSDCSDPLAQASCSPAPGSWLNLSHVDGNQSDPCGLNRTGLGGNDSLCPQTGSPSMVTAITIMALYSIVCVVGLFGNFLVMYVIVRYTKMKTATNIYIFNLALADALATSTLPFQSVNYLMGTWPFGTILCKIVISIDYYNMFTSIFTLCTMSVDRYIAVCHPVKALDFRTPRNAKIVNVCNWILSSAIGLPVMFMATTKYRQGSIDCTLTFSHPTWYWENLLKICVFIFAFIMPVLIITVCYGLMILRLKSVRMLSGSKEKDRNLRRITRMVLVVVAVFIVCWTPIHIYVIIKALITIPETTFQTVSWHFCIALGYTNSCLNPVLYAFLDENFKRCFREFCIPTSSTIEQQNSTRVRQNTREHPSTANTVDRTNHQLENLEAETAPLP

Row | SMILES | Emax [1] [%] | Ratio Ki [2]
1 | COc1ccc2c3c1O[C@H]1[C@@]4(OC)CC[C@@]5(C[C@]4(C)C=O)[C@@H](C2)N(CC2CC2)CC[C@]315 | 264 | 
2 | COc1ccc2c3c1O[C@H]1[C@@]4(OC)CC[C@@]5(C[C@]4(C)C(=O)c4ccc(C(F)(F)F)cc4)[C@@H](C2)N(CC2CC2)CC[C@]315 | 216 | 1.1
3 | COc1ccc2c3c1O[C@H]1[C@@]4(OC)CC[C@@]5(C[C@]4(C)C(=O)c4ccc(-c6ccccc6)cc4)[C@@H](C2)N(CC2CC2)CC[C@]315 | 178 | 1.8

From ChEMBL document CHEMBL4229484, “7β-Methyl substituent is a structural locus associated with activity cliff for nepenthone analogues” (2018)
